These results are taken from ChEMBL document CHEMBL5252527, “An Update on Poly(ADP-ribose)polymerase-1 (PARP-1) Inhibitors: Opportunities and Challenges in Cancer Therapy” (J Med Chem, 2016).

For this assay, the species on record is Homo sapiens. Briefly: Selectivity index, ratio of IC50 of human PARP-1 to IC50 of human PARP-2.

Turning to `Cn1cccc1/C=C1\C(=O)NC(=O)c2ccccc21`, the Ratio IC50 was 80.
